Data on 1 compound can be found in article PMC3669296, “Pulsed Electromagnetic Fields Increased the Anti-Inflammatory Effect of A2A and A3 Adenosine Receptors in Human T/C-28a2 Chondrocytes and hFOB 1.19 Osteoblasts” (PLoS ONE, 2013).

The chains behind the UniProt entries cited, without tags or fusion partners.
UniProt P0DMS8, whole entry: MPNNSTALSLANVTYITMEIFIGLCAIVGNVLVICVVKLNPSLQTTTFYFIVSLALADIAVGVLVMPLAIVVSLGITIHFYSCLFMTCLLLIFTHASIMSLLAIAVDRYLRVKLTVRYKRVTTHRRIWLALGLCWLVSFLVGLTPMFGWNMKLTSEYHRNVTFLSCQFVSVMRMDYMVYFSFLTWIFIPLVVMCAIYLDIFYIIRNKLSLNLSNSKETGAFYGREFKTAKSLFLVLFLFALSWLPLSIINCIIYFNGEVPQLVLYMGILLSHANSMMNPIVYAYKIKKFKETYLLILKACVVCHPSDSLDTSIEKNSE

The assay has as its target T1, A3AR (Homo sapiens, UniProt P0DMS8).
T1 construct: gene ADORA3; native full-length receptor in membranes of human T/C-28a2 chondrocytes
The experiment in a line: radioligand saturation binding, cell membranes. The settings on record: labelled compound, T/C-28a2 membranes, no PEMF, no IL-1β, Tris-HCl […], MgCl2 […], EDTA […], pH […] min, read-out: A3ARs / KD. The text has this:
radioligand saturation binding, cell membranes on A3AR

Turning to `CCCn1cc2c(nc(NC(=O)Nc3ccc(OC)cc3)n3nc(-c4ccco4)nc23)n1` [[3H]-MRE 3008F20, 5N-(4-methoxyphenylcarbamoyl) amino-8-propyl-2-(2-furyl) pyrazolo [4,3-e]-1,2,4-triazolo [1,5-c]pyrimidine], the Kd was found to be 3.04 ± 0.28 nM.
